From patent US20120129892A1, “NOVEL PHARMACEUTICALLY ACCEPTABLE SALTS OF 4-(1H-IMIDAZOL-4-[…])PYRIDINE AND THEIR THERAPEUTICAL USES” (BIOPROJET, priority 2009, published 2012)

Chains of the proteins cited; added tags and fusions are not shown. Lines headed by an entry give the natural chain unless they say otherwise; changes in a name come on top.
UniProt P58406: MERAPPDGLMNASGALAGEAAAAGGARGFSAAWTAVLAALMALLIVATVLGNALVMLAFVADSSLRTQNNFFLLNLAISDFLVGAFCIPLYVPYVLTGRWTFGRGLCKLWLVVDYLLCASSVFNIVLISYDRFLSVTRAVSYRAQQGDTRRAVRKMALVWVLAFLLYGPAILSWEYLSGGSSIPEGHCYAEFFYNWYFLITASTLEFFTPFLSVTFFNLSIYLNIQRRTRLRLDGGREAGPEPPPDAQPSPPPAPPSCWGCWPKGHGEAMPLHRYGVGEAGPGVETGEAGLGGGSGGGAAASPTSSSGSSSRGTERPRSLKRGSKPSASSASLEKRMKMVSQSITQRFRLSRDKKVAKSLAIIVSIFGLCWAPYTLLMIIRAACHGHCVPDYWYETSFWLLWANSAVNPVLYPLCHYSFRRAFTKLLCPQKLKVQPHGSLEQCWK

Target: H3R in brain (Mus musculus, UniProt P58406)
Conditions: mice, oral; immethridine base and salts at 0.3 mg/kg; imetit: maximal reduction

N=C(N)SCCc1cnc[nH]1 [imetit, reference compound]
t-methylhistamine brain level variation vs. control, mean (%): −35.9%
